Source: PubChem (National Center for Advancing Translational Sciences (NCATS))
EPAC1 ag = agonists of human EPAC1; 0.073% of 360,000 active; O95398; EPAC1 agonist qHTS, biochemical assay; response scale: 100% = response to 6.5 mM cAMP; Potency, µM (series often up to 154 µM), for the others: top-dose activation, usual class: activators; further: nearly all actives have a fitted effect of over 60% in size
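Multi-concentration qHTS readout: loss of Rap1B-bound BODIPY-GDP fluorescence driven by 100 nM EPAC1 with excess GDP (50 uM), monitored kinetically at room temperature; agonist response expressed relative to 6.5 mM cAMP.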
EPAC1 antagonist = antagonists of human EPAC1; EPAC1 GEF assay, Rap1b-BODIPY-GDP exchange fluorescence; Potency, µM (doses to about 115 µM), inactives show top-dose activity change, negative = inhibition, usual class: inhibitors; 0.14% of 360,000 active;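 further: plate controls were vehicle for no effect and positive control for full effect; nearly all actives have a fitted effect of over 50% in size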
EPAC2 antagonist = antagonists of human EPAC2 | Q8WZA2 | EPAC2 GEF exchange of Rap1B-BODIPY-GDP, fluorescence | Potency, µM (highest dose often 114 µM), without a hit: top-dose activity, negative = inhibition, actives largely listed as inhibitors | 0.18% of 360,000 active | AID 720708; further: on the % scale 0 is the no-effect control and ±100 the full control effect; nearly all actives have a fitted effect of over 45% in size
Rango release inh = prevents RanGTP from dissociating the Rango-importin beta complex; O95149+P62826; Biochemical FRET Rango-importin beta, RanGTP-induced dissociation; Potency, µM (doses to about 46.1 µM), inactives show top-dose activity change, negative = inhibition; 0.071% of 340,000 active; calls by dose curve; further: % of control where 0% means no effect; nearly all actives have a fitted effect of over 45% in size
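Rango/importin beta premix (0.1/0.25 uM final), PBS + 1 mM DTT + 0.02% Tween-20 + 0.1% BSA; cpd 5 min RT; FRET pre-read; + RanGTP-RCC1 (0.6 uM Ran, 2 mM GTP, 0.2 uM RCC1); 45 min RT; FRET post-read, ex 430, em 486/530 nm.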
EPAC2 ag = activates human EPAC2 exchange factor. Q8WZA2. Potency, µM (titrated, usually from 154 µM), for inactives: top-dose activation, hits mostly activators. 0.079% of 360,000 active. EPAC2 activation, biochemical qHTS; response scale: 100% = 6.5 mM cAMP response. AID 720711; further: nearly all actives have a fitted effect of over 50% in size
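Each well held 100 nM EPAC2, 250 nM RAP1B-BODIPY-GDP and 50 uM GDP. Fluorescence, read at 5-min intervals to 30 min, was referenced to a 6.5 mM cAMP positive control.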
Rango-impB inh = Rango-importin beta binding inhibition. Rango CFP/YFP FRET sensor + importin beta, 45 min. Potency, µM (titrated, usually from 92.2 µM), without a hit: top-dose inhibition of complex formation. 0.031% of 340,000 active. AID 540263; calls by dose curve;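 further: 0% = DMSO wells and 100% = buffer wells lacking importin beta; nearly all actives have a fitted effect of over 15% in size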
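FRET biosensor (snurportin 1 IBB flanked by EYFP and cerulean), 50 nM, with compound 5 min, then 0.125 microM importin beta in PBS, 1 mM DTT, 0.02% Tween-20, 0.1% BSA. CFP/YFP ratio read after 45 min at room temperature; pre-read flags interference.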
* marks the source's active call; other numbers are inactive results; i = inactive; ? = inconclusive; / = no result given. The list is not random: actives were taken first. Their share in the collection is about 0.43%. Unless noted, the call rests on the fitted dose curve; in most records, active means well fitted curve in the direction sought with a large enough effect; inconclusive means small, poorly fitted or top-dose-only effect, or another doubt; inactive means no such curve, though single readings can be large; an effect the other way counts as inactive or inconclusive. Potency means the concentration at half of the fitted maximal effect.

The first five records, ahead of the listing:
compound | EPAC1 ag | EPAC1 antagonist | EPAC2 antagonist | Rango release inh | EPAC2 ag | Rango-impB inh
CCOc1ccc2nc(NC3=NC(c4ccc(OC)cc4)CC(=O)N3)nc(C)c2c1 (stereo not given) | ? | 50µM* | 32µM* | -15% | ? | 0%
COc1ccc(CC(=O)NNc2ncnc3c2cnn3-c2ccccc2)cc1 | 4% | -5% | 2% | -12% | -4% | 1%
COc1ccc(CC(=O)NNc2ncnc3c2cnn3-c2ccc(C)cc2)cc1 | 7% | 0% | 0% | 15µM* | 3% | -7%
O=C(N[C@H](Cc1ccc(Cl)cc1)C(=O)O)OCC1c2ccccc2-c2ccccc21 | -23% | 50µM* | ? | -2% | -13% | 2%
N#C/C(=C\c1cccs1)c1nc2ccccc2[nH]1 | 10% | -13% | 6% | -15% | 4% | ?

The whole of this part, from the first entry:
compound | EPAC1 ag | EPAC1 antagonist | EPAC2 antagonist | Rango release inh | EPAC2 ag | Rango-impB inh
CCOc1ccc2nc(NC3=NC(c4ccc(OC)cc4)CC(=O)N3)nc(C)c2c1 (stereo not given) | ? | 50µM* | 32µM* | -15% | ? | 0%
COc1ccc(CC(=O)NNc2ncnc3c2cnn3-c2ccccc2)cc1 | 4% | -5% | 2% | -12% | -4% | 1%
COc1ccc(CC(=O)NNc2ncnc3c2cnn3-c2ccc(C)cc2)cc1 | 7% | 0% | 0% | 15µM* | 3% | -7%
O=C(N[C@H](Cc1ccc(Cl)cc1)C(=O)O)OCC1c2ccccc2-c2ccccc21 | -23% | 50µM* | ? | -2% | -13% | 2%
N#C/C(=C\c1cccs1)c1nc2ccccc2[nH]1 | 10% | -13% | 6% | -15% | 4% | ?
N#C/C(=C/c1ccc(O)c(O)c1)c1nc2ccccc2[nH]1 | -125% | 89µM* | ? | ? | 9% | ?
CC(CCC(C)C(C)(C)C)[C@@H]1CC[C@H]2C3C[C@H](OS(O)(=S)=S)[C@H]4C[C@H](OS(O)(=S)=S)[C@@H](OS(O)(=S)=S)C[C@]4(C)[C@H]3CC[C@]12C (stereo not given in full) (tested in a mixture with another compound) | -16% | 16µM* | 20µM* | -3% | 25% | 0%
CC(CCC(=O)NN)C1CCC2C3CCC4CC(O)CCC4(C)C3CCC12C (stereo not given) | -3% | -11% | -3% | 7% | 1% | 2%
Cc1ccc(/C(C#N)=C\c2ccc(N3CCOCC3)o2)cc1 | 11% | -3% | 0% | ? | ? | ?
Cc1ccc2nc(/C(C#N)=C\c3ccc(N4CCOCC4)o3)[nH]c2c1 | ? | 41% | 17% | ? | 40µM* | ?
O=S1(=O)N[C@H](Cc2ccccc2)COc2cccc(N3CCSCC3)c21 | 0% | -23% | -6% | / | 11% | /
Oc1ccc2ccccc2c1-c1sc(Nc2ccccc2)n[n+]1-c1ccc(F)cc1 | -79% | ? | 50µM* | 1% | -336% | 52µM*
O=C(CCc1nnc2ccc(N3CCCC3)nn12)Nc1cc(F)ccc1F | 8% | 12% | 1% | 8% | 9% | 0%
Cc1ccc(S(=O)(=O)/N=C2\C=C(Nc3ccc(O)cc3)C(=O)c3ccccc32)cc1 | 27% | ? | -17% | 5% | 19% | -1%
Cc1ccc(S(=O)(=O)/N=C2/C=C(Sc3ncn[nH]3)C(=O)c3ccccc32)cc1 | -6% | 45µM* | 20µM* | 8% | 19% | 0%
CC(C)c1ccc(S(=O)(=O)/N=C2/C=C(Sc3ncn[nH]3)C(=O)c3ccccc32)cc1 | 13% | 56µM* | 89µM* | 0% | 2% | 3%
Cc1cc(=O)oc2c(CN3CCCC3)c(O)c(Cl)cc12 | -2% | -3% | 3% | 15µM* | 1% | ?
CC(=O)Nc1cccc(C(=O)/C=C/c2ccc(Br)cc2)c1 | 14% | -19% | -8% | 19% | 15% | 2%
CC(=O)Nc1cccc(C(=O)/C=C/c2ccc(F)cc2)c1 | -3% | 79µM* | -7% | 16% | 9% | 4%
COC(=O)CC1C(=O)NCCN1C(=O)Nc1ccccc1 (stereo not given) | 3% | 0% | 1% | ? | 1% | ?
O=C(O)c1[nH]c2ccccc2c1C(c1cc(Cl)cc([N+](=O)[O-])c1O)c1c(C(=O)O)[nH]c2ccccc12 | -5% | 25µM* | -7% | -3% | -4% | ?
O=C(O)c1[nH]c2ccccc2c1C(c1ccccc1)c1c(C(=O)O)[nH]c2ccccc12 | -10% | -23% | -9% | 32% | -4% | -4%
Cn1c(CNC(=O)c2ccco2)nnc1SCC(=O)Nc1ccc(Br)cc1F | -3% | 6% | 22% | -9% | 5% | 0%
C[C@H]1CCC(=O)N([C@H](CSc2ccc(Br)cc2)Cc2ccccc2)CC1 | -10% | -7% | -4% | -14% | -4% | 1%
Cc1ccc(S(=O)(=O)N2CCN(c3ccccc3)CC2)cc1 | -1% | -19% | 0% | 7% | 2% | 3%
Cc1ccc(NC(=O)c2cc3ccccc3oc2=N)cc1 | -5% | 7% | 6% | 0% | -7% | -1%
N=c1oc2c3c4c(cc2cc1C(=O)Nc1ccccc1)CCCN4CCC3 | ? | i | i | ? | 112µM* | ?
CC(=O)Nc1cc(-c2ccsc2)cn2c(-c3ccc(F)cc3)cnc12 | -3% | -10% | -15% | / | 0% | /
O=C(Nc1ccccc1N1CCCCC1)c1cnccn1 | 6% | -5% | 18µM* | -1% | 11% | 0%
COc1c(OC(C)=O)c(=O)n2c3ccccc3c3ccnc1c32 | 4% | -6% | -29% | 0% | 3% | 21µM*
CCCC1(CCC)C(=O)NC(=NCCc2ccc(OC)c(OC)c2)NC1=O | 4% | -16% | -5% | -1% | -17% | -2%
CN(C)CCCN(C(=O)c1ccc(S(=O)(=O)N(C)C2CCCCC2)cc1)c1nc2ccc(F)cc2s1 | 7% | -5% | -8% | 1% | 7% | 1%
Cc1cc(C)c2sc(N(CCCN(C)C)C(=O)c3ccc(S(=O)(=O)N(C)C4CCCCC4)cc3)nc2c1 | 45µM* | -15% | -5% | 9% | -6% | 3%
COC(=O)c1ccccc1NC1=C/C(=N\S(=O)(=O)c2cccs2)c2ccccc2C1=O | -1% | -1% | 3% | -10% | 8% | -4%
COC(=O)c1ccccc1NC1=C/C(=N\S(=O)(=O)c2ccc(C(=O)O)cc2)c2ccccc2C1=O | 6% | 40µM* | ? | -4% | 13% | 0%
CC(C)(C)c1c(Cl)c(O)c(-c2ccccc2)c(=O)n1-c1ccccc1 | -4% | 79µM* | -6% | -10% | 0% | -2%
Cc1c(O)c2ccccc2n(-c2ccccc2)c1=O | -4% | 5% | 9% | -12% | 5% | -2%
O=c1cc(-c2ccccc2Cl)oc2cccc(O)c12 | -10% | 6% | 14% | 2% | -7% | -2%
O=c1cc2oc3cc(O)c(O)cc3c(-c3ccccc3[N+](=O)[O-])c-2cc1O | 0% | 79µM* | ? | -4% | 5% | ?
Cc1nc2ccc(NC(=O)CSc3ccccc3)cc2s1 | 7% | -11% | -8% | 8% | 17% | 2%
C#Cc1ccc([C@@H]2C=C(C(=O)Nc3ccccc3)O[C@H](OCC)[C@H]2CCCO)cc1 | -1% | -23% | ? | 3% | 4% | -3%
